From PubChem BioAssay (NCATS)
This is a selection; strong and weak results do not stand in their true shares. Inconclusive results are not listed. The source made the active and inactive calls. Unless noted, calls come from the whole dose curve; as a rule, active = well fitted curve in the direction sought with a large enough effect; inconclusive = small, poorly fitted or top-dose-only effect, or another doubt; inactive = no such curve, though single readings can be large; an effect the other way counts as inactive or inconclusive.

Sequences of proteins named here, by UniProt entry; tags and fusion partners are left off. A change or cut given only in a name is not applied to a line headed by its entry.
UniProt Q99828, whole entry: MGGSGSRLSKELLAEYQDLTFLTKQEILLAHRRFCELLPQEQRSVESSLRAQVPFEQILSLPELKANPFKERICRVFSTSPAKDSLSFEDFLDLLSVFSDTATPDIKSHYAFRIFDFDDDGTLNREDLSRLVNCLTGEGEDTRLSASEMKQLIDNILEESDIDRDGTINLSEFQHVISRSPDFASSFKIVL
UniProt P07203, whole entry: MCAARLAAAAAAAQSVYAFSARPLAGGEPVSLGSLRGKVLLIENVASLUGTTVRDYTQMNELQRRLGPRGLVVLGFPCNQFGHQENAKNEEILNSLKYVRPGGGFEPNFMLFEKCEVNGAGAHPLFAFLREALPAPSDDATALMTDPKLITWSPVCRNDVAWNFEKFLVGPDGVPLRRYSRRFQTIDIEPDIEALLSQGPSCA
UniProt P36969, whole entry: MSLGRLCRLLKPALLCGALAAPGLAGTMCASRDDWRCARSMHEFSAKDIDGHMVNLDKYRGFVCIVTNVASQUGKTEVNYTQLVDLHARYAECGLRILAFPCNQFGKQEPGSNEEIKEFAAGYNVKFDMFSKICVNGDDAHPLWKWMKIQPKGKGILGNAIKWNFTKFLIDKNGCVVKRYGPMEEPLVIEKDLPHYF
UniProt O15297, whole entry: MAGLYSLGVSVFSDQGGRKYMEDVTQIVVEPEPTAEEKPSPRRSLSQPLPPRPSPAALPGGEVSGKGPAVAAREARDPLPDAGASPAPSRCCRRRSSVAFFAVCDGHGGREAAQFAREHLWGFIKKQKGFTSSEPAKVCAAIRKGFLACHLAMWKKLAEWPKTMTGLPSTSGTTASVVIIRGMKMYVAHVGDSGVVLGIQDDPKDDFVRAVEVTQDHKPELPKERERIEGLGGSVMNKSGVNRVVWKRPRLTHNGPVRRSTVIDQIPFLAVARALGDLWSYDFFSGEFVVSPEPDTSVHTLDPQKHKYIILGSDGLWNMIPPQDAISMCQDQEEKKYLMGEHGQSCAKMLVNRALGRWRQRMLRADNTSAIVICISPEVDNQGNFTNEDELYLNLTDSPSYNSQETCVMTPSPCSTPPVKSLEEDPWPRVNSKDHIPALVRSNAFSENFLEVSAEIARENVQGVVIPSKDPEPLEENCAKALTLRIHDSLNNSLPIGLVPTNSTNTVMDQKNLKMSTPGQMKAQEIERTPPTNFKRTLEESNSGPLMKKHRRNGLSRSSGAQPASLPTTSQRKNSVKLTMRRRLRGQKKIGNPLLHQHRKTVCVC
UniProt P10635, whole entry: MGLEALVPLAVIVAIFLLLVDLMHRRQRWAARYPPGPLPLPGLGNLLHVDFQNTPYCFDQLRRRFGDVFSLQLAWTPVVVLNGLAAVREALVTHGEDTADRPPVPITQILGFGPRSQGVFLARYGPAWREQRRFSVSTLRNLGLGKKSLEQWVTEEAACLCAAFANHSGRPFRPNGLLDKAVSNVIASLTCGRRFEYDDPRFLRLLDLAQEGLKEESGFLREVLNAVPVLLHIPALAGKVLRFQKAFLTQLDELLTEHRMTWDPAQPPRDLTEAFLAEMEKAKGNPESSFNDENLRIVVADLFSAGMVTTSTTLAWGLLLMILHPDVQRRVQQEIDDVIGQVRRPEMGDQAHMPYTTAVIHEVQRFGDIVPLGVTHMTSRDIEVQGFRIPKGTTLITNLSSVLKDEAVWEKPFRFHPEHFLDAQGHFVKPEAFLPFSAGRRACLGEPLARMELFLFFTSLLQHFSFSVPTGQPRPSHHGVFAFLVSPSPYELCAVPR
UniProt P11712, whole entry: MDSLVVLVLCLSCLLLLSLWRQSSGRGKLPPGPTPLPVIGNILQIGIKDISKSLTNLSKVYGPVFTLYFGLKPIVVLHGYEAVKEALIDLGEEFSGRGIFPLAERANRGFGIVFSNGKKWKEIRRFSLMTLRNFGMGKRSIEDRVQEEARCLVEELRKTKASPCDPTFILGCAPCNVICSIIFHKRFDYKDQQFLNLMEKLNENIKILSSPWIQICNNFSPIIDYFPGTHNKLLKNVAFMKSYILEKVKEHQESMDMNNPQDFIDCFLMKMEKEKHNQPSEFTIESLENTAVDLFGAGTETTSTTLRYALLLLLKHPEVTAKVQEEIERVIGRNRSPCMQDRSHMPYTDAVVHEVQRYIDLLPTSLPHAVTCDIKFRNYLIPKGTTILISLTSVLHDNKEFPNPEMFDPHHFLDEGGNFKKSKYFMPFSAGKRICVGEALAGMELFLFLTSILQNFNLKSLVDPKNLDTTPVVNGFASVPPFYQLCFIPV
UniProt O95398, whole entry: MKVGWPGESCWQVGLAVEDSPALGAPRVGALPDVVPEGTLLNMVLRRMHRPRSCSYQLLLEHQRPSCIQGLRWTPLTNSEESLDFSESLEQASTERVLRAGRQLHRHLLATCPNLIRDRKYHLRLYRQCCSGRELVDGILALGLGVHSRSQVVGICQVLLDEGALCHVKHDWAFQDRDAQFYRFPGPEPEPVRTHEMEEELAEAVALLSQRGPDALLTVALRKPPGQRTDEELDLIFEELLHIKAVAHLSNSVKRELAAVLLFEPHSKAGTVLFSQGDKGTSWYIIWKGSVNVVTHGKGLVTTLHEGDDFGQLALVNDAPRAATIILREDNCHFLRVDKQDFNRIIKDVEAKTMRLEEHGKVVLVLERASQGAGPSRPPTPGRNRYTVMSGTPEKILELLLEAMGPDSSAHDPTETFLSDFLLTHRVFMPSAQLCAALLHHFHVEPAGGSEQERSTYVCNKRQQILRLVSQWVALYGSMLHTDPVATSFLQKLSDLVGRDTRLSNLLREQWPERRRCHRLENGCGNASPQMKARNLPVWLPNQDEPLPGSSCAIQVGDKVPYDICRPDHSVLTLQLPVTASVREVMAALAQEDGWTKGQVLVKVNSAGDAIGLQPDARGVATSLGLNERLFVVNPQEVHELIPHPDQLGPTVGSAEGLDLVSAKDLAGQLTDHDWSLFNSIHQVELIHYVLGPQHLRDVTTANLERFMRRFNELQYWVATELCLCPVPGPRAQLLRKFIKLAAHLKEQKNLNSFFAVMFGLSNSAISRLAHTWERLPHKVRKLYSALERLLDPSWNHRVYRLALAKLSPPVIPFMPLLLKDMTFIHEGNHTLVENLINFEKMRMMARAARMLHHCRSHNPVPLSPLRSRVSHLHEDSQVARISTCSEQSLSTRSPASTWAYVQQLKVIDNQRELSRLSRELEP
UniProt P08684, whole entry: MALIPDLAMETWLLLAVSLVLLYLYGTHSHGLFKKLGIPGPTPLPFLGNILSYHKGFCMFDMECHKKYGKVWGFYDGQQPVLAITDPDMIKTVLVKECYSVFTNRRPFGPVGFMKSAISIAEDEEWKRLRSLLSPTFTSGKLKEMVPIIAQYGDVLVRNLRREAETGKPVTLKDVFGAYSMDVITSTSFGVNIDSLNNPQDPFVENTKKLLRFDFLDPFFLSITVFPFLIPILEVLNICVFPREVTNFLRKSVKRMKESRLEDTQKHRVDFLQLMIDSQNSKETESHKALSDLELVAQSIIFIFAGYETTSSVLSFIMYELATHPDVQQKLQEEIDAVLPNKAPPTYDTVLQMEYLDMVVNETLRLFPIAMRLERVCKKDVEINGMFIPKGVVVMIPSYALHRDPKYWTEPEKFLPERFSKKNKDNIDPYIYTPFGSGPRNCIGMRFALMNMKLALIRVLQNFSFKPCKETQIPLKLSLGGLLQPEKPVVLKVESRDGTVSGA

What was measured:
[1] = qHTS to identify inhibitors of the type 1 interferon - major histocompatibility complex class I in skeletal muscle: primary screen against the NCATS Mechanism Interrogation Plate v5.0 (MIPE) Libary (AID 1347411); conditions: iHSKM cells + IFN-b, HiBiT-tagged MHC-I luminescence, 24 h; at 45.8 µM (top of the series);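 note: plate controls were vehicle for no effect and reference inhibitor for full effect; nearly all actives have a fitted effect of over 65% in size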
Summary of the method: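 Seed engineered human myoblasts (HLA-B HiBit) in medium without dexamethasone containing 4 ng/ml IFN-beta; after 1 hr add compound titrations (top 46 uM final). Incubate 24 hrs at 37 C, lyse 10 min with HiBiT reagent, read luminescence.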

[2] = target: Calcium and integrin-binding protein 1 (Homo sapiens) (UniProt Q99828); assay: Primary qHTS for Identification of Calcium Integrin Binding Protein 1 (CIB1) Competitor (AID 1508620); conditions: CIB1-GST / FITC-alphaIIb peptide fluorescence polarization; at 114 µM (top of the series) unless noted;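 note: GST tagged CIB1 binding a fluorescein labelled alphaIIb integrin peptide tracer; top concentration of the series differs between compounds; % is set by controls: 0 for no effect and ±100 for the full control effect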
Summary of the method: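 CIB1-GST (1 uM final) and compound incubated 15 min at room temperature before adding FITC-alphaIIb peptide tracer (100 nM final). Competition for binding read by fluorescence polarization (ex 480, em 540) after another 15 min at room temperature.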

[3] = Primary qHTS for inhibitors of nuclear receptor binding SET domain protein 2 (NSD2) in an isogenic RCH-ACV NSD2 p.E1099K mutant (9B) (AID 1645876); conditions: RCH-ACV NSD2 E1099K (9B) viability, CellTiter-Glo, 72 h; at 44.9 µM (top of the series); note: % is set by controls: 0 for no effect and ±100 for the full control effect; nearly all actives have a fitted effect of over 70% in size
[4] = Primary qHTS for inhibitors of nuclear receptor binding SET domain protein 2 (NSD2) in an RCH-ACV wild type WT cells (2C) (AID 1645877); conditions: RCH-ACV (leukaemia line) NSD2 WT (2C) viability, CellTiter-Glo, 72 h; at 44.9 µM (top of the series); note: % is set by controls: 0 for no effect and ±100 for the full control effect; nearly all actives have a fitted effect of over 70% in size
[5] = target: Glutathione peroxidase 1 (Homo sapiens) (UniProt P07203); assay: Primary qHTS Assay for Inhibitors of Recombinant Selenoprotein Glutathione Peroxidase 1 (GPX1) (AID 1845191); conditions: recombinant GPX1, GR-coupled NADPH fluorescence, 15 min; activity, negative = inhibition: at 48.8 µM (top of the series); note: nearly all actives have a fitted effect of over 65% in size; for activity, negative = inhibition: % is set by controls: 0 for no effect and ±100 for the full control effect
Summary of the method: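 NADPH consumption tracked by fluorescence at 340/450 nm between t=0 and t=15 min, room temperature. Final mix: 10 nM GPX1, 100 nM glutathione reductase, 1 mM GSH, 0.5 mM NADPH, 0.5 mM cumene hydroperoxide, 0.01% BSA; 30 min compound–enzyme preincubation.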

[6] = target: Phospholipid hydroperoxide glutathione peroxidase GPX4 (Homo sapiens) (UniProt P36969); assay: Primary qHTS Assay for Inhibitors of Recombinant Selenoprotein Glutathione Peroxidase 4 (GPX4) (AID 1845192); conditions: recombinant GPX4, GR-coupled NADPH fluorescence, 15 min; activity change, negative = inhibition: at 50 µM (top of the series); note: nearly all actives have a fitted effect of over 65% in size
Summary of the method: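 NADPH consumption followed by fluorescence at 340/450 nm, t=0 and after 15 min at room temperature. Reaction started with cumene hydroperoxide (0.5 mM final) after 30 min compound–GPX4 preincubation; final 200 nM GPX4, 100 nM GR, 1 mM GSH, 0.5 mM NADPH.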

[7] = qHTS to identify inhibitors of the type 1 interferon - major histocompatibility complex class I in skeletal muscle: primary screen against the NCATS Pharmaceutical Collection (AID 1347407); conditions: human skeletal muscle cells, IFN-b-induced MHC-I HiBiT luminescence, 24 h; at 45.9 µM (top of the series);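 note: luminescence of HiBiT knocked into endogenous HLA-B as interferon-induced MHC class I level; % is set by controls: 0 for no effect and ±100 for the full control effect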
Summary of the method: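 Luminescence from HiBiT-tagged endogenous HLA-B*08:01 served as the read-out of IFN-beta-induced MHC class I in CRISPR-engineered C25cl48 myoblasts. Cells received 4 ng/ml IFN-beta plus compound (high final 46 uM, […]) for 24 h.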

[8] = target: Protein phosphatase 1D (Homo sapiens) (UniProt O15297); assay: RapidFire Mass Spectrometry qHTS Assay for Modulators of WT P53-Induced Phosphatase 1 (WIP1) (AID 1347424); conditions: WIP1 dephosphorylation of phosphopeptide, RapidFire MS; at 63 µM (top of the series);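 note: amount of dephosphorylated VEPPL-S-QETFS peptide product formed by WIP1; plate controls were DMSO wells for no effect and GSK830371 inhibitor control at 10 µM for full effect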
Summary of the method: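 RapidFire mass spectrometry measured dephosphorylated peptide after 5 min room-temperature reaction of 2 uM VEPPL-pS-QETFS with 10 nM WIP1 (50 mM Tris-HCl pH 7.5, 30 mM MgCl2, 0.1 mM EGTA, BSA), following 1 hr compound preincubation; 1 uM isotope-labelled product standard.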

[9] = target: Protein phosphatase 1D (Homo sapiens) (UniProt O15297); assay: Rhodamine-PBP qHTS Assay for Modulators of WT P53-Induced Phosphatase 1 (WIP1) (AID 1347425); conditions: recombinant WIP1, Rhodamine-PBP phosphate fluorescence, real-time; at 57.5 µM (top of the series); note: % of control where 0% means no effect
Summary of the method: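 Read-out: Rhodamine-PBP fluorescence (ex 525/em 598 nm) for released Pi, read each minute for 11 min after adding 10 uM VEPPL-pS-QETFS; signal taken as f1 minus pre-substrate f0. Enzyme 5 nM WIP1 with 1 hr room-temperature compound preincubation.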

[10] = Primary qHTS for small molecule stabilizers of the endoplasmic reticulum resident proteome: Secreted ER Calcium Modulated Protein (SERCaMP) assay (AID 1508630); conditions: SH-SY5Y GLuc-SERCaMP (Gaussia luciferase released on ER calcium loss) secretion, thapsigargin, luminescence; at 38.4 µM (top of the series); note: % is set by controls: 0 for no effect and ±100 for the full control effect
Summary of the method: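 The SH-SY5Y reporter protocol was run at 3 concentrations up to 38.3 uM (primary) or 11 concentrations (follow-up): 16 h compound, 100 nM thapsigargin for 4 h, then extracellular luciferase luminescence.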

[11] = A High-Content qHTS Against Drug Library for the Identification of Small Molecules that Inhibit DYT1 Early Onset Primary Dystonia-Associated Cell Pathology (AID 1645839; calls by dose curve); conditions: HEK293 Flp-In EGFP-delE TorsinA, punctate imaging, 48 h; at 46.1 µM (top of the series)
Summary of the method: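 High-content imaging quantified EGFP-TorsinA mislocalization in HEK293-derived cells inducibly expressing DYT1 mutant torsinA, after 48 h exposure to compound given together with tetracycline induction. Cell count served as a toxicity channel alongside %pathology.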

[12] = target: Cytochrome P450 2D6 (Homo sapiens) (UniProt P10635); assay: Cytochrome P450 family 2 subfamily D member 6 (CYP2D6) small molecule antagonists: luciferase biochemical (cell-free) qHTS assay (AID 1645840; active = well fitted curve in the direction sought with a large enough effect in the repeat runs; an effect the other way counts as inactive or inconclusive; note: nearly all actives have a fitted effect of over 55% in size; note: potency is the fitted concentration of half-maximal effect); conditions: P450-Glo CYP2D6 enzyme, luciferin luminescence, 1 h; series mostly up to 57.4 µM
Summary of the method: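 P450-Glo CYP2D6 system: proluciferin substrate converted by enzyme to luciferin, read by luminescence proportional to activity. Enzyme-substrate mix with compound 10 min at room temperature, then NADPH regeneration 1 h before detection reagent.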

[13] = target: Cytochrome P450 2C9 (Homo sapiens) (UniProt P11712); assay: Cytochrome P450 family 2 subfamily C member 9 (CYP2C9) small molecule antagonists: luciferase qHTS assay (AID 1645842; active = well fitted curve in the direction sought with a large enough effect in the repeat runs; an effect the other way counts as inactive or inconclusive; note: % is set by controls: 0 for no effect and ±100 for the full control effect; nearly all actives have a fitted effect of over 55% in size); conditions: P450-Glo CYP2C9 enzyme assay, luciferin luminescence; at 57.4 µM (top of the series)
Summary of the method: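 P450-Glo CYP2C9 system: proluciferin substrate with enzyme in mix containing 0.4% BSA, 10 min at room temperature, then NADPH regeneration solution added and incubated 1 h at 37C. Detection reagent stopped reaction; luminescence read after 20 min as RLU.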

[14] = target: Rap guanine nucleotide exchange factor 3 (Homo sapiens) (UniProt O95398); assay: Confirmatory qHTS for antagonist of cAMP-regulated guanine nucleotide exchange factor 3 (EPAC1) (AID 1645880); conditions: EPAC1 Rap1B-BODIPY-GDP exchange, fluorescence; at 115 µM (top of the series);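 note: plate controls were DMSO only for no effect and full effect of the ATA control for full effect; nearly all actives have a fitted effect of over 55% in size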
Summary of the method: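 Released BODIPY-GDP fluoresces less than Rap1-bound BODIPY-GDP; the signal is followed at 480/540 nm at 5-min intervals over 30 min, after 5 min at room temperature. Reactions contain 100 nM EPAC1, 250 nM RAP1B-BODIPY-GDP and 50 uM GDP; results are normalized to ATA and DMSO.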

[15] = target: Rap guanine nucleotide exchange factor 3 (Homo sapiens) (UniProt O95398); assay: Counterscreen qHTS for agonist of cAMP-regulated guanine nucleotide exchange factor 3 (EPAC1) (AID 1645889); conditions: EPAC1 Rap1B-BODIPY-GDP exchange, fluorescence; at 154 µM (top of the series); note: % of control where 0% means no effect; nearly all actives have a fitted effect of over 40% in size
Summary of the method: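 Rap1B-BODIPY-GDP 250 nM + GDP 50 uM; cpds 7-pt, final 9.74 nM–152 uM (activator mode) or from 7.32 nM upwards (inhibitor mode); RT; FI 480/540 nm at 5 and 30 min, then ± cAMP, reread.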

[16] = target: Luciferin 4-monooxygenase (Photinus pyralis) (UniProt P08659); assay: Primary firefly luciferase (FLuc) qHTS assay for identification of artifact compounds. (AID 1845220); conditions: purified firefly luciferase, luminescence, 5 min; at 54.1 µM (top of the series);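 note: plate controls were DMSO vehicle for no effect and no enzyme for full effect; nearly all actives have a fitted effect of over 60% in size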
Summary of the method: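 Compounds sat 15 min at room temperature with 10 uM luciferin and 10 uM ATP (pH 7.6 Tris acetate). Firefly luciferase (10 nM final) was then added, and luminescence was read 5 min later. Data normalized to no-enzyme and DMSO controls were Hill-fitted.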

[17] = Primary fluorescence-based thiol-reactive (MSTI) qHTS assay for identification of artifact compounds. (AID 1845221); conditions: MSTI thiol-reactivity probe, 1 h; at 53.8 µM (top of the series);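 note: thiol-reactive compounds lower the probe fluorescence signal; nearly all actives have a fitted effect of over 65% in size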
Summary of the method: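 A multi-concentration qHTS design tested compounds against 4 uM MSTI, pH 7.4 phosphate-buffered saline. Plates were protected from light for 1 h at room temperature before imaging fluorescence.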

[18] = qHTS of pediatric cancer cell lines to identify multiple opportunities for drug repurposing: Confirmatory screen for OHS-50 cells (AID 1347128); conditions: OHS-50 osteosarcoma cells viability; at 45.9 µM (top of the series);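 note: compound exposure lasted 48 h at 37 degrees C; % is set by controls: 0 for no effect and ±100 for the full control effect; nearly all actives have a fitted effect of over 55% in size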
Summary of the method: (§1)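 Cells (500-1,000/well) rested 5 h, then received compounds for 48 h; metabolically active cells were measured by CellTiter-Glo luminescence. Final concentrations spanned up to 46 µM (MIPE, 11-point) or 0.59 nM-46 µM (NPC, 8-point) in primary screens, 11-point in follow-ups.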

[19] = qHTS of pediatric cancer cell lines to identify multiple opportunities for drug repurposing: Confirmatory screen for SK-N-SH cells (AID 1347129); conditions: SK-N-SH neuroblastoma cell viability; at 46.1 µM (top of the series);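 note: cells exposed to compound for 48 h before viability read; plate controls were DMSO for no effect and bortezomib control for full effect; nearly all actives have a fitted effect of over 60% in size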
Summary of the method: as §1

[20] = target: Cytochrome P450 3A4 (Homo sapiens) (UniProt P08684); assay: Cytochrome P450 family 3 subfamily A member 4 (CYP3A4) small molecule antagonists: luciferase qHTS assay (AID 1645841; active = well fitted curve in the direction sought with a large enough effect in the repeat runs; an effect the other way counts as inactive or inconclusive; note: nearly all actives have a fitted effect of over 45% in size); conditions: P450-Glo CYP3A4 enzyme assay, luciferin luminescence; at 57.4 µM (top of the series)

CCOC(=O)C(=O)CBr
inactive: activity change, negative = inhibition [1] 10.4% | activity change, negative = inhibition [2] 4.27% [at 57.7 µM] | activity change, negative = viability loss [3] -1.94% | activity change, negative = cell killing [4] 4.98% | outcome [5] | outcome [6]

CCC(=O)N(c1ccccc1)C1CCNCC1
inactive: activity change, negative = inhibition [7] 1.27% | activity change, negative = inhibition [8] -2.17% | activity change, negative = inhibition [9] 1.18% | activity change, negative = inhibition [2] -2.66% | activity change, negative = inhibition [10] -2.4% | % pathology change, negative = correction [11] -0.167% | activity change, negative = inhibition [13] -3.61%
active: Potency [12] 15.5 µM

CCCCn1nnnc1C(c1cc2ccccc2o1)N1CCC(n2c(=O)[nH]c3ccccc32)CC1 (stereo not drawn)
inactive: activity, negative = inhibition [14] -37.1% | activation [15] -19.5%

CCC(c1nnnn1C(C)(C)C)N1CCC(n2c(=O)[nH]c3ccccc32)CC1 (stereo not drawn)
inactive: activity, negative = inhibition [14] -19.9%

CC(=O)N1CCc2ccc(N(C(=O)/C=C/c3cccc(C#N)c3)C3CCN(CCC4CCCC4)CC3)cc21
inactive: activity change, negative = inhibition [2] 2.89% | activity change, negative = viability loss [3] -8.98% | activity change, negative = cell killing [4] -23.4% | activity, negative = inhibition [5] 3.34% | activity change, negative = inhibition [6] -1.24% | activity change, negative = inhibition [16] 1.74% | activity change, negative = thiol reactive [17] 26.2%
active: Potency [12] 12 µM

CCOC(=O)N1CCC(=O)CC1
inactive: activity change, negative = cytotoxic [18] 1.46% | activity change, negative = cytotoxic [19] 10.8% | activity change, negative = inhibition [7] 17.4% | activity change, negative = inhibition [8] 4.73% | activity change, negative = inhibition [9] 9.5% | activity change, negative = inhibition [2] -4.16% | activity change, negative = inhibition [10] -13.9% | % pathology change, negative = correction [11] 11.3% | Potency [12] | activity change, negative = inhibition [20] 0% | activity change, negative = inhibition [13] 14.5% | activity change, negative = viability loss [3] 4.86% | activity change, negative = cell killing [4] 0.369%
